Data taken from patent US5849771A, “Phosphorylated nitrone derivatives, method for preparing same, and compositions containing said derivatives” (Centre National de la Recherche Scientifique (C.N.R.S.), priority 1995, dated 1998).

What was measured:
[1] = physchem
Description: Biol. Med. 14 (1993) 127. The partition coefficients are defined simply as the ratio of the nitrone concentration in the lipophilic phase (n-octanol) to the nitrone concentration in the aqueous phase.
Identical volumes (2 cm^3) of the octanolic nitrone solution prepared above and of a 10 mM phosphate buffer of pH=7.4 are agitated vigorously at 37° C. for 1 hour and the two phases are then separated by centrifuging (1000 g for 20 s) . The respective nitrone concentrations in each phase are then measured.

[2] = Kinetics of decomposition (EPR) of superoxide trapping adducts (nitrone-OOH) in phosphate buffer medium; settings: decay of nitrone-OOH adduct, 0.1M phosphate buffer pH=5.8
From the text: The adducts from trapping with the superoxide radical were produced using the riboflavin-DTPA (diethylenetriaminepentaacetic acid) system.
This system contains 1M of DTPA, […] of riboflavin and 0.1M of nitrone in a 0.1M phosphate buffer at pH=5.8.
This mixture is transferred into the cell of a Varian E-9 spectrometer. The cell is then irradiated to generate the superoxide radical in situ. At the end of irradiation the decrease in the adducts (nitrone-OOH) is studied using EPR analysis.

In the case of `CCOP(=O)(OCC)C(C)(C)[N+]([O-])=Cc1ccccc1` [Example 1, Diethyl 1-(N-benzylidene-N-oxy)amino-1-methylethyl-phosphonate], the lipophilic/hydrophilic character ([1]; from partition coefficients, n-octanol/phosphate buffer) was “lipophilic”, the logD at 1 h ([1]; n-octanol/10 mm phosphate buffer, pH 7.4) was 1 and the Kinetic constant k [2] was 2.26 ± 0.03 10^3 s^-1.
